Data taken from patent publication US10308689B2, “Dengue virus (DV) polypeptide sequences, T cell epitopes and methods and uses thereof” (LA JOLLA INSTITUTE FOR ALLERGY AND IMMUNOLOGY, priority 2010, dated 2019).

Test system: PBMC of healthy adult blood donors from Colombo, Sri Lanka
Assay: Ex vivo IFNγ ELISPOT, HLA-matched PBMC of Sri Lankan blood donors
Type: cell-based, human
Conditions: ex vivo IFNγ ELISPOT
[1] = donors expressing HLA B*4001 (supertype B44)
[2] = donors expressing HLA B*0702 (supertype B7)
[3] = donors expressing HLA B*3501 (supertype B7)
[4] = donors expressing HLA A*0201 (supertype A2)

CC(C)C[C@H](NC(=O)[C@H](CCCNC(=N)N)NC(=O)[C@H](Cc1ccccc1)NC(=O)[C@H](CCC(=O)O)NC(=O)CN)C(=O)N[C@@H](CCCNC(=N)N)C(=O)NCC(=O)N[C@@H](CCC(=O)O)C(=O)N[C@@H](CCC(N)=O)C(=O)N[C@@H](CCCNC(=N)N)C(=O)O
T cell response [SFC] [1]: 273 SFC

CC[C@H](C)[C@H](NC(=O)[C@H](CCC(=O)O)NC(=O)[C@@H](N)CCSC)C(=O)N[C@H](C(=O)N[C@@H](C)C(=O)N[C@@H](CCC(=O)O)C(=O)N[C@@H](Cc1c[nH]c2ccccc12)C(=O)N[C@@H](CC(C)C)C(=O)N[C@@H](Cc1c[nH]c2ccccc12)C(=O)O)[C@@H](C)O
T cell response [SFC] (donors expressing B*5801): 27 SFC

CSCC[C@H](NC(=O)[C@H](C)NC(=O)CNC(=O)[C@H](CCC(=O)O)NC(=O)[C@@H](N)CCC(N)=O)C(=O)N[C@@H](Cc1c[nH]cn1)C(=O)N[C@@H](CO)C(=O)N[C@@H](C)C(=O)N[C@@H](CC(C)C)C(=O)O [QEGAMHSAL]
T cell response [SFC] [1]: 22 SFC

CC[C@H](C)[C@H](N)C(=O)N1CCC[C@H]1C(=O)N[C@@H](CCSC)C(=O)N[C@@H](C)C(=O)N[C@H](C(=O)N[C@@H](Cc1ccc(O)cc1)C(=O)NCC(=O)N[C@@H](Cc1c[nH]c2ccccc12)C(=O)N[C@@H](CC(N)=O)C(=O)N[C@@H](CC(C)C)C(=O)O)[C@@H](C)O
T cell response [SFC] [2]: 450 SFC

CSCC[C@H](NC(=O)[C@H](CC(C)C)NC(=O)[C@@H](NC(=O)[C@H](CCC(=O)O)NC(=O)[C@@H](N)CC(C)C)[C@@H](C)O)C(=O)N[C@@H](CC(C)C)C(=O)N[C@H](C(=O)N[C@@H](C)C(=O)N[C@@H](CC(C)C)C(=O)O)C(C)C [LETLMLVAL]
T cell response [SFC] [1]: 112 SFC

CC[C@H](C)[C@H](NC(=O)[C@H](CC(=O)O)NC(=O)[C@H](CC(=O)O)NC(=O)[C@H](CCC(=O)O)NC(=O)[C@@H](NC(=O)[C@H](CCC(=O)O)NC(=O)[C@@H]1CCCN1C(=O)[C@@H](N)CC(N)=O)[C@@H](C)CC)C(=O)N[C@@H](Cc1ccccc1)C(=O)O
T cell response [SFC] [3]: 110 SFC

CC(C)C[C@H](NC(=O)[C@H](CO)NC(=O)CNC(=O)[C@H](CS)NC(=O)[C@H](Cc1c[nH]c2ccccc12)NC(=O)[C@H](CCC(N)=O)NC(=O)[C@H](CC(=O)O)NC(=O)[C@H](CCC(=O)O)NC(=O)[C@@H](N)CCCNC(=N)N)C(=O)O
T cell response [SFC] (donors expressing B*4001): 150 SFC

CC(C)C[C@H](NC(=O)[C@H](C)NC(=O)[C@H](CCC(=O)O)NC(=O)[C@H](Cc1ccccc1)NC(=O)[C@H](CCC(=O)O)NC(=O)[C@H](CC(C)C)NC(=O)[C@H](Cc1ccc(O)cc1)NC(=O)[C@@H](N)CCCNC(=N)N)C(=O)NCC(=O)N[C@@H](Cc1ccccc1)C(=O)O
T cell response [SFC] (donors expressing A*2402): 130 SFC

CC[C@H](C)[C@H](NC(=O)CNC(=O)[C@@H](NC(=O)[C@@H](NC(=O)[C@H](C)NC(=O)[C@H](CCSC)NC(=O)[C@@H](N)CCSC)[C@@H](C)O)[C@@H](C)CC)C(=O)N[C@@H](C)C(=O)N[C@@H](CC(C)C)C(=O)O [MMATIGIAL]
T cell response [SFC] [3]: 38 SFC

CSCC[C@H](NC(=O)[C@@H]1CCCN1C(=O)[C@@H](NC(=O)[C@@H](NC(=O)[C@H](Cc1ccccc1)NC(=O)[C@@H](NC(=O)[C@@H](NC(=O)[C@H](C)NC(=O)[C@@H](N)C(C)C)[C@@H](C)O)[C@@H](C)O)C(C)C)[C@@H](C)O)C(=O)O
T cell response [SFC] [3]: 268 SFC

CSCC[C@H](NC(=O)[C@@H](NC(=O)[C@H](Cc1c[nH]cn1)NC(=O)[C@H](Cc1ccccc1)NC(=O)[C@@H](NC(=O)CNC(=O)[C@H](CCC(=O)O)NC(=O)[C@@H](N)CCSC)C(C)C)[C@@H](C)O)C(=O)N[C@@H](Cc1c[nH]c2ccccc12)C(=O)O
T cell response [SFC] (donors expressing HLA B*4403 (supertype B44)): 68 SFC

CC[C@H](C)[C@H](N)C(=O)N[C@@H](CCC(N)=O)C(=O)N1CCC[C@H]1C(=O)N[C@@H](Cc1ccccc1)C(=O)N[C@@H](CC(C)C)C(=O)N[C@@H](C)C(=O)N[C@@H](CC(C)C)C(=O)NCC(=O)N[C@@H](Cc1ccccc1)C(=O)O
T cell response [SFC] (donors expressing HLA A*2402 (supertype A24)): 27 SFC

CC[C@H](C)[C@H](NC(=O)[C@@H](NC(=O)[C@H](CC(=O)O)NC(=O)[C@H](CCSC)NC(=O)[C@@H](NC(=O)[C@H](C)NC(=O)CNC(=O)[C@H](CCCCN)NC(=O)[C@@H]1CCCN1C(=O)[C@@H](N)[C@@H](C)O)C(C)C)[C@@H](C)CC)C(=O)O
T cell response [SFC] (donors expressing B*0702): 422 SFC

CC(C)C[C@H](NC(=O)[C@H](C)NC(=O)[C@H](CCC(=O)O)NC(=O)[C@H](Cc1ccccc1)NC(=O)[C@H](CCC(=O)O)NC(=O)[C@H](CC(C)C)NC(=O)[C@H](Cc1ccccc1)NC(=O)[C@@H](N)CCCNC(=N)N)C(=O)NCC(=O)N[C@@H](Cc1ccccc1)C(=O)O
T cell response [SFC] (donors expressing A*2402): 37 SFC

CSCC[C@H](N)C(=O)N[C@H](C(=O)N[C@@H](CCC(N)=O)C(=O)N[C@@H](CCCCN)C(=O)N[C@@H](C)C(=O)N[C@@H](CCCNC(=N)N)C(=O)N[C@@H](CC(N)=O)C(=O)N[C@@H](C)C(=O)N[C@@H](CC(C)C)C(=O)O)[C@@H](C)O [MTQKARNAL]
T cell response [SFC] [2]: 263 SFC

CC[C@H](C)[C@H](N)C(=O)N[C@H](C(=O)N[C@@H](CC(C)C)C(=O)N[C@@H](CC(C)C)C(=O)N[C@@H](CS)C(=O)N[C@@H](CC(C)C)C(=O)N[C@H](C(=O)N1CCC[C@H]1C(=O)N[C@H](C(=O)N[C@H](C(=O)O)C(C)C)[C@@H](C)O)[C@@H](C)CC)[C@@H](C)O
T cell response [SFC] [4]: 43 SFC

CC[C@H](C)[C@H](NC(=O)[C@@H]1CCCN1C(=O)[C@@H](N)CC(=O)O)C(=O)N1CCC[C@H]1C(=O)N[C@@H](Cc1ccc(O)cc1)C(=O)N[C@@H](CC(=O)O)C(=O)N1CCC[C@H]1C(=O)N[C@@H](CCCCN)C(=O)N[C@@H](Cc1ccccc1)C(=O)O
T cell response [SFC] [3]: 77 SFC

CC[C@H](C)[C@H](NC(=O)[C@H](C)NC(=O)[C@H](Cc1ccc(O)cc1)NC(=O)[C@H](Cc1c[nH]cn1)NC(=O)[C@@H](NC(=O)[C@@H](NC(=O)[C@H](CC(C)C)NC(=O)[C@H](CC(C)C)NC(=O)[C@H](CC(C)C)NC(=O)[C@@H](N)C(C)C)C(C)C)[C@@H](C)O)C(=O)O
T cell response [SFC] [4]: 260 SFC

CC[C@H](C)[C@H](NC(=O)CNC(=O)[C@H](CCC(=O)O)NC(=O)CNC(=O)[C@H](CCC(=O)O)NC(=O)[C@H](CCSC)NC(=O)[C@H](CCC(N)=O)NC(=O)[C@@H](N)CCCNC(=N)N)C(=O)N[C@@H](Cc1ccccc1)C(=O)O
T cell response [SFC] (donors expressing B*1501): 583 SFC

CC[C@H](C)[C@H](NC(=O)[C@H](CCC(=O)O)NC(=O)[C@@H](N)CCCNC(=N)N)C(=O)N1CCC[C@H]1C(=O)N[C@@H](CCC(=O)O)C(=O)N[C@@H](CCCNC(=N)N)C(=O)N[C@@H](CO)C(=O)N[C@@H](Cc1c[nH]c2ccccc12)C(=O)N[C@@H](CC(N)=O)C(=O)N[C@H](C(=O)O)[C@@H](C)O
T cell response [SFC] [1]: 93 SFC

CC[C@H](C)[C@H](N)C(=O)N[C@@H](C)C(=O)N[C@@H](CC(N)=O)C(=O)N[C@@H](CCC(N)=O)C(=O)N[C@@H](C)C(=O)N[C@H](C(=O)N[C@H](C(=O)N[C@@H](CC(C)C)C(=O)N[C@@H](CCSC)C(=O)O)C(C)C)[C@@H](C)O
T cell response [SFC] [3]: 220 SFC

CC[C@H](C)[C@H](NC(=O)[C@H](CCC(N)=O)NC(=O)[C@@H](N)CCCCN)C(=O)N[C@@H](C)C(=O)N[C@@H](CC(N)=O)C(=O)N[C@@H](CCC(=O)O)C(=O)N[C@@H](CC(C)C)C(=O)N[C@@H](CC(N)=O)C(=O)N[C@@H](Cc1ccc(O)cc1)C(=O)O
T cell response [SFC] (donors expressing HLA B*1501 (supertype B62)): 22 SFC

CSCC[C@H](NC(=O)[C@@H](NC(=O)[C@H](CCSC)NC(=O)[C@H](CO)NC(=O)[C@@H]1CCCN1C(=O)[C@@H](NC(=O)[C@@H](NC(=O)[C@H](CC(C)C)NC(=O)[C@@H](N)CCSC)C(C)C)[C@@H](C)O)[C@@H](C)O)C(=O)O
T cell response [SFC] [3]: 115 SFC

CC[C@H](C)[C@H](NC(=O)[C@H](CO)NC(=O)[C@@H](NC(=O)[C@H](CCSC)NC(=O)CNC(=O)[C@@H](NC(=O)[C@H](C)NC(=O)[C@@H](N)CCSC)C(C)C)C(C)C)C(=O)N[C@@H](CC(C)C)C(=O)O
T cell response [SFC] [3]: 172 SFC

CC(C)C[C@H](NC(=O)[C@@H](NC(=O)[C@@H](NC(=O)[C@H](CC(C)C)NC(=O)[C@@H]1CCCN1C(=O)CNC(=O)[C@@H](NC(=O)[C@H](C)N)[C@@H](C)O)[C@@H](C)O)[C@@H](C)O)C(=O)N[C@@H](Cc1c[nH]c2ccccc12)C(=O)O
T cell response [SFC] (donors expressing HLA B*5801 (supertype B58)): 350 SFC

C[C@@H](O)[C@H](NC(=O)[C@H](Cc1ccccc1)NC(=O)[C@H](CS)NC(=O)[C@H](Cc1c[nH]c2ccccc12)NC(=O)[C@H](CCC(=O)O)NC(=O)[C@@H](N)CCCNC(=N)N)C(=O)NCC(=O)N[C@@H](CCC(=O)O)C(=O)N[C@@H](CCCNC(=N)N)C(=O)N[C@@H](CC(N)=O)C(=O)O
T cell response [SFC] [1]: 48 SFC

CSCC[C@H](NC(=O)[C@H](Cc1c[nH]c2ccccc12)NC(=O)[C@@H]1CCCN1C(=O)[C@@H](N)CC(N)=O)C(=O)N[C@@H](CCC(=O)O)C(=O)N[C@@H](CC(=O)O)C(=O)N[C@@H](CCCCN)C(=O)N[C@H](C(=O)N1CCC[C@H]1C(=O)N[C@H](C(=O)O)C(C)C)[C@@H](C)O
T cell response [SFC] (donors expressing B*0702): 137 SFC

CSCC[C@H](NC(=O)[C@H](Cc1ccc(O)cc1)NC(=O)[C@@H]1CCCN1C(=O)[C@H](CC(N)=O)NC(=O)[C@H](CC(C)C)NC(=O)[C@@H](NC(=O)[C@@H](N)CCCCN)C(C)C)C(=O)N1CCC[C@H]1C(=O)N[C@@H](CO)C(=O)N[C@H](C(=O)O)C(C)C
T cell response [SFC] (donors expressing A*0201): 48 SFC
